Bioassay records: PubChem BioAssay, Broad Institute
Vif inh: HIV Vif self-association inhibitors, primary screen, imaging, HEK293T, single point; HEK293T cells, Vif self-association by quenched fluorescence, 24 h; inhibition, % at 7.49 µM; hit rate 0.35% among 340,000; AID 602346, 2012; in the data active means inhibition above about 50%, passing the limit was not always enough
ARNT-TACC3 inh: disruptors of ARNT/TACC3 protein interaction, primary screen, biochemical, AlphaScreen, single concentration; Transforming acidic coiled-coil-containing protein 3 (Homo sapiens), Q9Y6A5; AlphaScreen His-ARNT PAS-B/GST-TACC3 binding, luminescence; TACC3 fragment carries E629A point mutation; inhibition, % at 9.99 µM; hit rate 0.66% among 390,000;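 active means mean inhibition of replicates at least 50% and at least half of replicates each reaching 50%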;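 further: 0% = complete ARNT plus TACC3 wells and 100% = ARNT alone without TACC3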
CAL PDZ FP-1: CAL PDZ peptide-binding inhibitors, primary screen, biochemical, fluorescence polarization, Cer-tagged CAL PDZ, HTS; Golgi-associated PDZ and coiled-coil motif-containing protein (Homo sapiens), Q9HD26; purified CAL PDZ, TMR-peptide fluorescence polarization, 1 h; inhibition, % at 20 µM; hit rate 0.02% among 330,000; AID 504414, 2011;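 active means highest replicate inhibition of at least 40%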;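 further: plate controls were DMSO neutral control wells for no effect and unlabeled competitor peptide control wells for full effect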
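Test system: tagged CAL PDZ domain / Buffer or medium: sodium phosphate/NaCl buffer pH 7.4 with TCEP, IgG, Thesit / Reagent: TMR-labelled reporter peptide T*-PRC34 bound in PDZ groove / Compound dosing: single point, 20 µM / Schedule: 1 h incubation at room temperature before polarization reading / Technique: fluorescence polarization (mP) / Benchmarks: unlabelled peptide, DMSO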
UUG fidelity: yeast start codon fidelity modulation; AID 602363; activity score, % at 18.7 µM; S. cerevisiae UUG-firefly luciferase reporter, luminescence/redox ratio; 0.13% of 350,000 active;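 active means replicate mean at a twofold rise or more, about +100% in these data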;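 further: firefly luciferase made from a UUG start codon reports start codon fidelity; reporter light over untreated wells divided by growth signal over untreated wells; some hits fall short of that in this replicate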
CAL PDZ FP-2: untagged CAL PDZ binding inhibitors, primary screen, biochemical, fluorescence polarization, HTS; purified CAL PDZ, TMR-peptide fluorescence polarization, 1 h; Golgi-associated PDZ and coiled-coil motif-containing protein (Homo sapiens), Q9HD26; inhibition, % at 24.9 µM; hit rate 0.92% among 300,000; AID 602252, 2012;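 active means mean inhibition of at least 30% with at least half of replicates also reaching 30%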;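 further: 0% = DMSO neutral control and 100% = excess unlabeled competitor peptide PRC23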
PglD DTNB: C. jejuni PglD acetyltransferase inhibitors, primary screen, biochemical, DTNB colorimetric, single point; UDP-N-acetylbacillosamine N-acetyltransferase PglD (Campylobacter jejuni); purified PglD enzyme, DTNB colorimetric CoA detection; inhibition, % at 12.5 µM; hit rate 0.098% among 360,000; AID 602405, 2012; in the data active means inhibition above about 16%, passing the limit was not always enough
Numbers without * were called inactive; / = not tested or not shown; + = active, no number. Rows were chosen to be rich in hits. Some 1.6% of all compounds tested hit in one or more screens of this group.

SMILES	Vif inh	ARNT-TACC3 inh	CAL PDZ FP-1	UUG fidelity	CAL PDZ FP-2	PglD DTNB
C[C@@H]1CCCCO[C@H](CN(C)S(=O)(=O)c2ccccc2)[C@H](C)CN([C@H](C)CO)C(=O)c2cc(NS(=O)(=O)c3ccccc3)ccc2O1	/	-4	/	23	/	4
CCC(CO)NCc1ccc(OC2CCCC2)cc1 (stereo not drawn)	4	-12	0	-15	47*	-1
COc1ccc(NC(=O)CCNS(=O)(=O)c2ccc3c(c2)CC(C)N3C(=O)C2CC2)cc1 (stereo not drawn)	-2	-1	0	-9	34*	0
COc1cccc(NC(=O)CCNS(=O)(=O)c2ccc3c(c2)CC(C)N3C(=O)C2CC2)c1 (stereo not drawn)	-2	8	-1	-35	/	-5
COc1cccc(C(=O)N2C[C@H]3[C@@H](c4ccccc42)[C@H](CO)N3C(=O)c2ccccc2)c1	/	2	/	11	/	-4
COc1ccccc1CNC(=O)c1ccc(Cl)c(NC2=NC3CS(=O)(=O)CC3S2)c1 (stereo not drawn)	60*	-3	0	-17	/	6
NNC(=O)c1oc2nc(-c3ccccc3)cc(-c3ccccc3)c2c1N	71*	/	0	-16	-7	12
Cc1ccc(-c2cc(-c3ccco3)c3c(N)c(C(=O)NN)oc3n2)cc1	-14	0	0	/	-5	/
CC(C)NC(=O)Nc1ccc2c(c1)CC(=O)N([C@@H](C)CO)C[C@H](C)[C@H](CN(C)C(=O)NC(C)C)O2	/	-9	/	-10	/	0
COc1ccc(COC(=O)C2CC(=O)N(Cc3ccccc3)C2)cc1 (stereo not drawn)	0	-7	0	-5	+	2
COc1cccc(COC(=O)C2CC(=O)N(Cc3ccccc3)C2)c1OC (stereo not drawn)	5	/	/	6	/	5
C[C@@H]1CCCCO[C@@H](CN(C)C(=O)Nc2cccc3ccccc23)[C@H](C)CN([C@@H](C)CO)C(=O)c2cc(NS(C)(=O)=O)ccc2O1	/	27	/	23	/	-2
COc1ccc(S(=O)(=O)Nc2ccc3c(c2)CC(=O)N([C@@H](C)CO)C[C@@H](C)[C@@H](CN(C)C(=O)Nc2cccc4ccccc24)O3)cc1	/	-1	/	-2	/	4
O=C(Nc1ccccc1)[C@@H]1CC=C[C@@H]2CCN(C3CCCCC3)C(=O)[C@@H]21	4	-5	-1	-10	2	0
O=C(NC1CCCCC1)[C@@H]1CC=C[C@@H]2CCN(C3CCCCC3)C(=O)[C@@H]21	53*	/	1	-6	-2	-4
Cc1noc(C)c1COc1ccc(CC(=O)NCCc2ccccc2)cc1	-3	1	0	/	108*	/
CCc1ccc(NC(=S)NCc2ccccc2)cc1	6	-9	-1	/	49*	/
CCOc1ccc(CN(C)C(C)C(=O)NCc2ccccc2)cc1 (stereo not drawn)	-8	-6	0	-13	3	-2
CCc1ccc(CN(C)C(C)C(=O)NCc2ccccc2)cc1 (stereo not drawn)	6	3	/	3	51*	-3
CCc1ccc(NC(=S)Nn2cnnc2)cc1	-1	-2	16	/	63*	/
CCNC(=O)/C(C#N)=C/c1c(N2CCN(C)CC2)nc2c(C)cccn2c1=O	8	0	-1	-8	43*	-3
COc1ccc(-n2nc(C(=O)NCC(=O)N3CCN(c4ccccc4F)CC3)c3ccccc3c2=O)cc1	3	/	-1	-6	73*	-3
C[C@@H]1CN([C@H](C)CO)C(=O)c2cc(C#CC3(O)CCCC3)cnc2O[C@H]1CN(C)S(C)(=O)=O	/	-8	/	3	/	-2
C/C(=N\Nc1ncc(Cl)cc1Cl)c1ccccn1	3	73*	-2	/	-6	/
C=CCNC(=S)N/N=C(\C)c1ccccn1	6	59*	0	-49	-3	4

Retrieved one by one from above (5):
SMILES	Vif inh	ARNT-TACC3 inh	CAL PDZ FP-1	UUG fidelity	CAL PDZ FP-2	PglD DTNB
C[C@@H]1CN([C@H](C)CO)C(=O)c2cc(C#CC3(O)CCCC3)cnc2O[C@H]1CN(C)S(C)(=O)=O	/	-8	/	3	/	-2
COc1ccc(COC(=O)C2CC(=O)N(Cc3ccccc3)C2)cc1 (stereo not drawn)	0	-7	0	-5	+	2
COc1ccc(NC(=O)CCNS(=O)(=O)c2ccc3c(c2)CC(C)N3C(=O)C2CC2)cc1 (stereo not drawn)	-2	-1	0	-9	34*	0
COc1cccc(C(=O)N2C[C@H]3[C@@H](c4ccccc42)[C@H](CO)N3C(=O)c2ccccc2)c1	/	2	/	11	/	-4
CCc1ccc(NC(=S)Nn2cnnc2)cc1	-1	-2	16	/	63*	/

Further records follow.
SMILES	Vif inh	ARNT-TACC3 inh	CAL PDZ FP-1	UUG fidelity	CAL PDZ FP-2	PglD DTNB
CC(=NNC(=S)Nc1ccccc1)c1ccccn1	0	/	/	/	/	/
CC(=NNC(=S)Nc1ccccc1Cl)c1ccccn1	-6	87*	-2	/	-1	/
CC(=O)N(C)C[C@H]1Oc2cc(Br)ccc2S(=O)(=O)N([C@H](C)CO)C[C@H]1C	/	35	/	3	/	-4
CN(C)c1ccc(C(=S)N2CCN(c3ccc([N+](=O)[O-])cc3)CC2)cc1	-4	0	0	-19	-3	-1
CN(C)c1ccc(C(=S)N2CCN(c3ccccc3)CC2)cc1	11	-7	/	-24	50*	-1
Cc1ccc(N2CCN(C(=S)Nc3ccccc3)CC2)cc1	-8	-1	0	/	86*	/
S=C(Nc1ccccc1)N1CCN(c2ccccc2)CC1	27	5	-1	-24	/	-2
Cc1ccc(N2CCN(C(=S)c3ccc(N(C)C)cc3)CC2)cc1	66*	4	-1	-5	-3	0
CC(=O)Nc1nnc(-c2ccco2)o1	4	9	0	/	-5	/
Cc1ccc(SCC(=O)Nc2nnc(-c3ccco3)o2)cc1	4	48*	0	-34	-4	3
O=C(CSc1ccc(F)cc1)Nc1nnc(-c2ccco2)o1	1	49*	-2	-18	-1	-3
Cc1ccc(NC(=O)CSc2nnc(-c3ccco3)o2)cc1	2	3	-1	/	2	/
COc1ccc(O)c(C(=O)c2cc(C#N)c(=O)n(-c3ccc(Cl)cc3)c2)c1	-8	1	0	/	39*	/
CN(NC(=O)c1ccccc1F)c1ccc([N+](=O)[O-])cn1	5	-2	-1	-12	55*	3
COc1ccc(CCNC(=O)C23CCC(C)(C(=O)C2Br)C3(C)C)cc1OC (stereo not drawn)	2	49*	0	/	-1	/
COc1ccc(CCNC(=O)C23CCC(C)(C(=O)C2=O)C3(C)C)cc1OC (stereo not drawn)	16	-8	-1	-16	-2	6
O=[N+]([O-])c1cnccc1Nc1ccc(Cl)cc1	-14	6	-1	/	75*	/
C/C(N)=C(/C#N)C(=O)COc1ncnc2ccccc12	/	-8	0	0	-5	1
C/C(N)=C(/C#N)C(=O)COC(=O)Cc1coc2ccc3ccccc3c12	7	1	-1	/	79*	/
Cc1noc(C)c1NC(=O)N(C)C[C@H]1Oc2ccc(NC(=O)CCC(F)(F)F)cc2CC(=O)N([C@H](C)CO)C[C@@H]1C	/	-4	/	8	/	-1
